Reference: patent US20060058383A1 (priority 2004, published 2006)

Settings: i.v.

SMILES	acute toxicity in mice (nude mice 6 mg/kg i.p. daily for three days, C3H-Hej mice 10 mg/kg/day, daily for 5 days)	toxicity in mice (5 mg/kg, three times per week, M/W/F)
CCCOC(=O)C(=O)CBr [Glycolycin, propyl 3-bromo-2-oxopropionate]	No obvious acute toxicity	–
O=C(O)O.O=C([O-])C(=O)CBr.[Na+] [S-Glycolycin, Sodium 3-bromo-2-oxopropionate carbonic acid]	–	No obvious toxicity
